{"sequences": {"note": "Protein sequences, listed by entry. Tags and fused reporters are not part of them. Residues count along the entry.", "UniProt O95931, 11-69 limits assumed": "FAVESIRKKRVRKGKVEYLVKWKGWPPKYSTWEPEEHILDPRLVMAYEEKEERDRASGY"}, "source": "patent US12129248B2", "about": "“Chromobox protein inhibitors and uses thereof” (Dana-Farber Cancer Institute, Inc., priority 2016, dated 2024)", "target": "Human His6-CBX7 (Homo sapiens (Human), UniProt O95931)", "assay": "CBX7 AlphaScreen assay (binding of CBX7 chromodomain to H3K27me3 peptide)", "details": "read-out: AVG CBX7 Alpha IC50; average; His6-CBX7 / biotinylated-H3K27me3"}
{"compound": "N#Cc1ccc(NC(=O)Nc2ncc(CC(=O)Nc3ccc(N4CCCC4)cc3)s2)cc1", "values": [{"measurement": "IC50", "value": 6.58, "unit": "µM"}]}
